Laboratory results as given in US12478634B2, “Compositions and methods for treating muscular dystrophy and other disorders” (The Charlotte Mecklenburg Hospital Authority, priority 2016, dated 2025).

System: C2C12 myotubes
Settings: differentiated C2C12 myotubes, 5 mM, 5 days

## ^13C5-ribitol [^13C-ribitol]
  levels of ^13C-ribitol-5P, CDP-^13C-ribitol and ^13C-ribitol in cells: clearly elevated levels
